Measured values published in ChEMBL document CHEMBL1131908, “Delta opioid binding selectivity of 3-ether analogs of naltrindole” (Bioorg Med Chem Lett, 1999).
Several values for one entry are separate records, joined by “and”; a condition that tells them apart may be missing. Equal entries are not always repeated.

The chains behind the UniProt entries cited, without tags or fusion partners.
UniProt P41143, whole entry, looked up: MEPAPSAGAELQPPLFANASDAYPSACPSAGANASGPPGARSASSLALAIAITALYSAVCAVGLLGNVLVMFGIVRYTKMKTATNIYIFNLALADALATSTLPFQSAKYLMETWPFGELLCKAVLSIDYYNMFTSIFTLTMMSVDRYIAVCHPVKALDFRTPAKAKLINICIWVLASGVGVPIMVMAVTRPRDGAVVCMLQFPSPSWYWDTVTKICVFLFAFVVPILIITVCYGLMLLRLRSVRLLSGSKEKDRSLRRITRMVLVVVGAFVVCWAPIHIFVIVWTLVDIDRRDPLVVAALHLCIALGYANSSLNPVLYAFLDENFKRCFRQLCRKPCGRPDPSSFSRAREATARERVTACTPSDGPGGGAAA
UniProt P35372, whole entry, looked up: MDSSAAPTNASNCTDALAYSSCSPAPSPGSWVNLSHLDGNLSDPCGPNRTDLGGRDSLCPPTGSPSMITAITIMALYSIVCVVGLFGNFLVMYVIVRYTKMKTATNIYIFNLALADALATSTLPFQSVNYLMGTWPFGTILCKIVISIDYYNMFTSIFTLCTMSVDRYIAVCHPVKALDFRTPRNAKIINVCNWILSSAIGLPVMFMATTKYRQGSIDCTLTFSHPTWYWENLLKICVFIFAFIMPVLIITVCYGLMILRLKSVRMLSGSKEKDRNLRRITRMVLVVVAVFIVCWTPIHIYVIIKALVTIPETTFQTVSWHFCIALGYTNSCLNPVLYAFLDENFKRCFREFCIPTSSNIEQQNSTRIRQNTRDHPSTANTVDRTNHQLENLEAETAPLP

Target: Opioid receptors; mu & delta (Homo sapiens) (UniProt P41143+P35372)
Test: Ratio of binding affinities of mu and delta opioid receptors
Assay type: protein assay

For `Oc1ccc2c3c1O[C@H]1c4[nH]c5ccccc5c4C[C@@]4(O)[C@@H](C2)N(CC2CC2)CC[C@]314` [NALTRINDOLE], the Ratio was 120 and 52.
